Results reported in ChEMBL document CHEMBL2057199, “Development of novel M1 antagonist scaffolds through the continued optimization of the MLPCN probe ML012” (Bioorg Med Chem Lett, 2012).

By UniProt entry, the sequences of proteins in these tests, tags left out. Where a name states a change or a piece, a line headed by the entry shows the natural chain unless it says otherwise.
UniProt P20309, whole entry, looked up: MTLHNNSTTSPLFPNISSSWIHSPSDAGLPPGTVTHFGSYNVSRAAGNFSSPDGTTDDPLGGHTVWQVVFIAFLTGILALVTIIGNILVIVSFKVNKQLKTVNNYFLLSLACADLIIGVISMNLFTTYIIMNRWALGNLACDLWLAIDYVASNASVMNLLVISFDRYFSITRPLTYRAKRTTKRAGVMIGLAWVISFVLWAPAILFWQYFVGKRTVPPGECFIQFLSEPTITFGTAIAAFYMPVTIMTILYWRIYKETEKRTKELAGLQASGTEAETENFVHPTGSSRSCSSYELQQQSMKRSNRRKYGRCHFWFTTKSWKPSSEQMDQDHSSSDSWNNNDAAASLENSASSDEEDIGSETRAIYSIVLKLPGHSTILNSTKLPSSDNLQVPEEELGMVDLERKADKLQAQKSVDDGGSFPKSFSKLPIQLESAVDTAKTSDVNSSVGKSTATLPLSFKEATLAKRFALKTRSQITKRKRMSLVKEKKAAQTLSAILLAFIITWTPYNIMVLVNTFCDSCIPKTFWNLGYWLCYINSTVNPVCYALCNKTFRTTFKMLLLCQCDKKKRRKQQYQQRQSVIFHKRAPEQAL
UniProt P11229: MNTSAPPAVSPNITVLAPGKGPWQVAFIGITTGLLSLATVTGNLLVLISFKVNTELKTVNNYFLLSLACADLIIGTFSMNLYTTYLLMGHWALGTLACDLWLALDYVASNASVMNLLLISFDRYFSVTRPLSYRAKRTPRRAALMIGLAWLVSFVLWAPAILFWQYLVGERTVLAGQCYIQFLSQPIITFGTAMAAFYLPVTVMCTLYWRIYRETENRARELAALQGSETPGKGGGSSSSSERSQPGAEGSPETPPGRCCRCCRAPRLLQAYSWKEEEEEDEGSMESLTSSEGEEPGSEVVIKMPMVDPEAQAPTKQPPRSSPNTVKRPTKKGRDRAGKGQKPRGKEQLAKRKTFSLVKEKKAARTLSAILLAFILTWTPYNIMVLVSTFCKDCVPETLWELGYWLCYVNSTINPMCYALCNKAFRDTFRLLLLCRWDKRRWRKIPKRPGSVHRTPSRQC
UniProt P08172, whole entry, looked up: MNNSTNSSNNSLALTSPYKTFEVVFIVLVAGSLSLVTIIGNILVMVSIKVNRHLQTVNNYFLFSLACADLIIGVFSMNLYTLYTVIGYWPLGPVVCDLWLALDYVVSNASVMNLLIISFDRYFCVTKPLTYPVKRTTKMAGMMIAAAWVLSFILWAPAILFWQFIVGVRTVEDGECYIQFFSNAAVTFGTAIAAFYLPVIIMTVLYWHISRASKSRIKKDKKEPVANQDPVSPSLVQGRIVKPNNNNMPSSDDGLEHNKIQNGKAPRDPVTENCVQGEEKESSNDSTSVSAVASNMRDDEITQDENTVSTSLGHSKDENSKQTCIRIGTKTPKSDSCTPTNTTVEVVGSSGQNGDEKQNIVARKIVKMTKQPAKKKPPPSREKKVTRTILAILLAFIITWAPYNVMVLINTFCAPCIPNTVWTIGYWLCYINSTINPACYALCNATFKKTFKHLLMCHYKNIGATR

Key:
[1] = biological target: Muscarinic acetylcholine receptor M1 and M3 (Homo sapiens) (UniProt P20309+P11229); assay: Selectivity for human muscarinic M1 receptor over human muscarinic M3 receptor
[2] = biological target: Muscarinic acetylcholine receptors; M1 & M2 (Homo sapiens) (UniProt P11229+P08172); assay: Selectivity for human muscarinic M1 receptor over human muscarinic M2 receptor
Homo sapiens [3] = organism: Homo sapiens; assay: Selectivity for human muscarinic M1 receptor over human muscarinic M4 receptor
Homo sapiens [4] = organism: Homo sapiens; assay: Selectivity for human muscarinic M1 receptor over human muscarinic M5 receptor

Selectivity ratio [1]: 45
Selectivity ratio [2]: 45
Selectivity ratio (Homo sapiens [3]): 45
Selectivity ratio (Homo sapiens [4]): 45
Compound: O=C(CCNS(=O)(=O)c1cccc2nsnc12)N1CCN(c2ccncc2)CC1
